Results from patent US20230218710A1, “METHOD OF TREATING CORONAVIRUS INFECTIONS” (priority 2020, published 2023).

Sequences of proteins named here, by UniProt entry; tags and fusion partners are left off. A change or cut given only in a name is not applied to a line headed by its entry.
UniProt P35414: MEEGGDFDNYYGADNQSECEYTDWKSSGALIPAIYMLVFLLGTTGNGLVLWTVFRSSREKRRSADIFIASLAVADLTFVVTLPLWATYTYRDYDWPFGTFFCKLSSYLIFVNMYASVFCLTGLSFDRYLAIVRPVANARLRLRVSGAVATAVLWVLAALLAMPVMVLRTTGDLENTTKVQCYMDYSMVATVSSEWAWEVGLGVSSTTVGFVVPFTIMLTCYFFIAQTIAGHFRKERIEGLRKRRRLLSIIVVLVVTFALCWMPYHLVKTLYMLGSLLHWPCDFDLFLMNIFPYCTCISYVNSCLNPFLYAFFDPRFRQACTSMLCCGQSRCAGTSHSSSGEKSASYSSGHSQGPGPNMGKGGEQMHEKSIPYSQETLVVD
UniProt Q9ULZ1: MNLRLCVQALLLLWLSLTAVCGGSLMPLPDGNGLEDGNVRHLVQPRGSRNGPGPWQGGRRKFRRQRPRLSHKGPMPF

Target: Apelin Receptor (APJ) stably overexpressed in CHO-K1 AGTRL1 Gi cells (UniProt P35414)
Assay: cell-based or functional assay

IC50 (M), inhibition of forskolin-stimulated cAMP accumulation: 1.76e-09 M
Substance: Pyr-Apelin-13 (from UniProt Q9ULZ1 65-77) (peptide)
